Laboratory results reported in patent US6426359B1 (Pfizer Inc., priority 1996, dated 2002).

Protein sequences, listed by entry. Tags and fused reporters are not part of them. Lines headed by an entry give the natural chain unless they say otherwise; changes in a name come on top.
UniProt P43116: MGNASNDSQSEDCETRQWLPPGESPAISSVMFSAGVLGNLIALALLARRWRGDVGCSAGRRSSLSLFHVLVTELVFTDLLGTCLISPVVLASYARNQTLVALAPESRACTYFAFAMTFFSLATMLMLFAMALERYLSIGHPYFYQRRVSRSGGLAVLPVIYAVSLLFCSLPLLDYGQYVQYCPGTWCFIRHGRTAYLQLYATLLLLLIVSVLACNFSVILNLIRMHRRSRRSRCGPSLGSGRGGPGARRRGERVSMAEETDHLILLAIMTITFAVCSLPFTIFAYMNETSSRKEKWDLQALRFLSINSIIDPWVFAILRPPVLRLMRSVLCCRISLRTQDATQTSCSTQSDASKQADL

Molecular target: T1, human EP2 receptor (Homo sapiens, UniProt P43116)
T1 construct: cDNAs representing the complete open reading frames of the human EP2 and EP4 receptors; expressed in transfected cells
Test: Scatchard analysis of [3-H]PGE2 binding in 293-S line expressing EP2
Settings: read-out: Kd for PGE2 (EP2), 293-S/EP2 line selected for compound screening, approximately 338,400 receptors per cell

CCCCC[C@H](O)/C=C/[C@H]1[C@H](O)CC(=O)[C@@H]1C/C=C\CCCC(=O)O [PGE2, prostaglandin E2]
Kd: 12 nM
